PubChem BioAssay AID504692 (The Scripps Research Institute Molecular Screening Center, 2011)
Only a part is listed here, and it is no random draw. Activity calls are given as the source filed them. Rule as the data show it: active = activation mostly above about 9.5% (no sharp cut-off); inactive = mostly below about 7.6%.

Protein sequences, listed by entry. Tags and fused reporters are not part of them.
UniProt P47898, whole entry, looked up: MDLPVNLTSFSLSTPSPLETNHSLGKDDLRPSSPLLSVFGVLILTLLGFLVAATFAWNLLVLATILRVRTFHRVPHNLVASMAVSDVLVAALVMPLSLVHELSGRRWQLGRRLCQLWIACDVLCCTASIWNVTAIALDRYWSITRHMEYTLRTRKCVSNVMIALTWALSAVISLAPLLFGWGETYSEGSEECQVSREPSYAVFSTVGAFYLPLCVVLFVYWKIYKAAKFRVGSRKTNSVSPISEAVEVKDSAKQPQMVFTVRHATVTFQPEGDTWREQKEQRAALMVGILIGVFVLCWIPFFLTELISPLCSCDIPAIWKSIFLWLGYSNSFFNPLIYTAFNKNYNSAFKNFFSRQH

What follows are molecules tested against 5-hydroxytryptamine receptor 5A (Homo sapiens) (UniProt P47898) (assay: activation of human 5-HT5A receptor – cell-based, luminescence, full-deck HTS, counter-screen for OPRM1-OPRD1 heterodimer agonist project, primary screen (AID 504692;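 also: 0% = cells with vehicle only and 100% = reference agonist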)). Settings: HTR5A agonist assay, at 9.3 µM, hits give high values.
In the case of `Cc1cccc(NC(=O)Cn2c(=O)n(C)c3ccccc32)c1`, the activation is reported as inactive: 0.38%. In the case of `COc1ccc(NC2CCN(C3CC(=O)N(c4ccc(F)c(Cl)c4)C3=O)CC2)cc1` (stereo not given), the activation is reported as inactive: -3.19%. For `O=C(Cn1c(COc2ccccc2)nc2ccccc21)Nc1cccc(Cl)c1`, the activation was active: 12%. With `C[C@@H](NC(=O)Cn1cnc2c(NCc3ccccc3)ncnc21)c1cccc2ccccc12` the activation was inactive: 0.92%. For `CCCCOC(=O)Cn1c(=N)n(CCN(CC)CC)c2ccccc21`, the activation was inactive: 0.49%. For `O=C(Cn1cnc2c(OCc3ccccc3)ncnc21)NCCN1CCOCC1`, the activation was inactive: 3.15%. In the case of `COCCCNC(=O)CC1C(=O)N(Cc2ccccc2)C(C)c2nc3ccccc3n21` (stereo not given), the activation is reported as inactive: -5.99%. With `CCc1cccc(CC)c1NC(=O)Cn1c(-c2ccccc2Cl)nc2ccccc21` the activation was inactive: -4.2%. In the case of `CCCCCCNCCn1cnc2c(N)ncnc21`, the activation is reported as inactive: 7.33%. In the case of `O=C(Nc1nc2ccccc2n1CCN1CCOCC1)c1ccc(Cl)cc1`, the activation is reported as inactive: -0.32%. For `Nc1cc(N)c2nonc2c1[N+](=O)[O-]`, the activation was inactive: 9.22%. In the case of `O=C(Cn1cnc2c(NCc3ccccc3)ncnc21)NCCN1CCOCC1`, the activation is reported as inactive: 2.12%. With `Cc1ccccc1C(=O)Nc1cccc(NC(=O)Cn2cnc3c(=O)n(C)c(=O)n(C)c32)c1` the activation was inactive: 0.81%. With `CN(C)CCn1c(COc2ccccc2)nc2ccccc21` the activation was inactive: 3.27%. For `CSCC[C@H](NC(=O)N1CCn2c1nc1ccccc12)C(=O)NCc1ccc(C)cc1`, the activation was inactive: -5.19%. With `N=c1n(CCOc2ccccc2)c2ccccc2n1CCN1CCOCC1` the activation was inactive: -0.94%. In the case of `CC(C)CC(=O)NC(Sc1ccc(Cl)cc1)C(Cl)(Cl)Cl` (stereo not given), the activation is reported as inactive: 5.21%. `CCN(C(=O)Cn1cnc2c1c(=O)n(C)c(=O)n2C)C1CCCCC1` was tested, and the activation was inactive: 2%. In the case of `CCN(C(=O)Cn1cnc2c1c(=O)n(C)c(=O)n2C)C1CCS(=O)(=O)C1` (stereo not given), the activation is reported as inactive: -3.79%. For `CCC(=O)N1c2ccc(S(=O)(=O)CCC(=O)N3CCn4c3nc3ccccc34)cc2CC1C` (stereo not given), the activation was inactive: 5.4%. For `Oc1ccccc1CNc1ccccn1`, the activation was inactive: -4.59%. In the case of `COCCN1CCn2c(nc3cc([N+](=O)[O-])ccc32)C1`, the activation is reported as inactive: 2.33%. `O=C(NC(Sc1ccncn1)C(Cl)(Cl)Cl)c1ccccc1` (stereo not given) was tested, and the activation was inactive: -5.28%. In the case of `Cc1ccc(-c2csc(N3CCN(c4cc5c(cc4Cl)nc(-c4ccncc4)n5CCN4CCCCC4)CC3)n2)cc1`, the activation is reported as inactive: 5.65%. `CC(C)[C@H](NC(=O)N1CCn2c1nc1ccccc12)C(=O)NCC1CCCO1` (stereo not given in full) was tested, and the activation was inactive: -1.01%. For `Cn1c(=O)c2c(ncn2CC(=O)Nc2cc(S(=O)(=O)N3CCCCC3)ccc2O)n(C)c1=O`, the activation was inactive: -3.1%. `Nc1ncnc2c1ncn2CCN1CCCCC1` was tested, and the activation was inactive: -2.01%. For `O=C(Cn1c(CO)nc2ccccc21)NCCc1ccc(F)cc1`, the activation was inactive: -3.35%. In the case of `Cn1c(=O)c2ncn(CC(=O)NCCC3=CCCCC3)c2n(C)c1=O`, the activation is reported as inactive: 0.48%. With `CCOc1ccc(C(O)Cn2c(=N)n(CCN3CCCCC3)c3ccccc32)cc1` (stereo not given) the activation was inactive: -1.89%. In the case of `CCCCC(=O)N/N=C(C)/C=C/c1ccccc1F`, the activation is reported as inactive: -1.94%. With `CCCn1c(=O)[nH]c(=O)c2c1nc(-c1ccccc1)n2CCN1CCOCC1` the activation was inactive: 3.32%. With `Cn1c(=O)c2c(ncn2CC(=O)N2CCN(S(=O)(=O)c3ccc(F)cc3)CC2)n(C)c1=O` the activation was inactive: -4.17%. In the case of `CCN(CC)CCn1c(/N=C/c2cc(Br)ccc2O)nc2ccccc21`, the activation is reported as inactive: -7.63%. For `O=C(Cn1c(-c2cscn2)nc2ccccc21)Nc1ccc(Cl)cc1`, the activation was inactive: 11.9%. For `CC1CCCC(C)N1C(=O)Cn1c(SCC(=O)NCc2ccc3c(c2)OCO3)nc2ccccc21` (stereo not given), the activation was inactive: 8.73%. With `S=C=Nc1cccc(C2(N3CCCCC3)CCCCC2)c1` the activation was inactive: 0.05%. `CCCCNc1nc2ccccc2n1CC(=O)N1CCc2ccccc2C1` was tested, and the activation was inactive: -1.98%. `C=CCOC(=O)C1=C(C)N=C2SCCC(=O)N2C1/C=C/c1ccccc1OC` (stereo not given) was tested, and the activation was inactive: -4.57%. `O=C(c1cccc(Cl)c1)N1CCn2c1nc1ccccc12` was tested, and the activation was inactive: -1.87%. For `CCC(=O)Nc1ccc2c(c1)nc1n2CCN(CCOC)C1`, the activation was inactive: -0.05%. With `COc1ccc(C)cc1S(=O)(=O)N1c2ccc(C)cc2C2CN(C)CCC21` (stereo not given) the activation was inactive: 2.59%. In the case of `Cc1n[nH]c(C)c1CCC(=O)N/N=C/C=C/c1ccccc1`, the activation is reported as inactive: -3.84%. For `N=c1n(CCCOc2ccc(F)cc2)c2ccccc2n1CC(N)=O`, the activation was inactive: -1.67%. With `O=C1Cn2c(nc3ccccc32)N1c1ccccc1F` the activation was inactive: 2%. `CCC(C(=O)NC1CCCCC1)n1c(SCc2ccc(F)cc2)nc2ccncc21` (stereo not given) was tested, and the activation was inactive: 0.16%. For `Cc1ccc(-c2csc(N3CCN(c4ccc5nc(-c6ccncc6)n(CCN6CCCCC6)c5c4)CC3)n2)cc1`, the activation was inactive: 5.7%. For `CN(C)C(=O)Cn1c(SCC(=O)Nc2ccc3c(c2)OCO3)nc2ccccc21`, the activation was inactive: 4.44%. With `Nc1nonc1-c1nc2ccccc2n1CC(=O)N/N=C\c1ccc(-c2ccc(Cl)cc2)o1` the activation was inactive: -1.97%. In the case of `CSc1nc(N)nc2c1ncn2CC(=O)NCc1ccc2[nH]ccc2c1`, the activation is reported as inactive: 3.19%. In the case of `NC(=O)c1cc([N+](=O)[O-])cc([N+](=O)[O-])c1N`, the activation is reported as inactive: 1.37%. With `C[C@H](O)[C@@H]1C(=O)N2CCc3ccc(-c4ccccc4)cc3[C@@H]2C[C@@H]1N(C)C(=O)NC1CCCCC1` the activation was inactive: -2.67%. In the case of `O=C(Nc1ccccc1)N1CCC(n2c(=O)[nH]c3ccccc32)CC1`, the activation is reported as inactive: 0.91%. For `CC1CCCN(C(=O)Cn2c(-c3nonc3N)nc3ccccc32)C1` (stereo not given), the activation was inactive: -3.94%. `Cc1ccc2c(c1)C1CN(C)CCC1N2C(=O)c1ccc(Cl)c(S(=O)(=O)N2CCOCC2)c1` (stereo not given) was tested, and the activation was inactive: 0.54%. For `CN(CC(=O)Nc1ccc(F)c(F)c1F)C(=O)Cn1cnc2c1c(=O)n(C)c(=O)n2C`, the activation was inactive: 0.74%. For `CN(C(=O)Cc1ccc(Cl)c(Cl)c1)[C@H]1CCCC[C@H]1N1CCCC1`, the activation was inactive: 3.25%. `O=C(CSc1nc2ccccc2n1CC(=O)N1CCCCC1)N1CCCCC1` was tested, and the activation was inactive: 3.31%. With `CC(CNC(=O)Cn1cnc2c(NCc3ccccc3)ncnc21)c1ccccc1` (stereo not given) the activation was inactive: 1.14%. In the case of `CCN(CC)CCn1c(NS(=O)(=O)c2ccc(C)cc2)nc2ccccc21`, the activation is reported as inactive: 8.87%. In the case of `O=C(Cn1cnc2c(NCc3ccccc3)ncnc21)NCc1ccc2c(c1)OCO2`, the activation is reported as inactive: 2.34%. In the case of `Cc1ccc(N/C(=N/P(=O)(N2CCOCC2)N2CCOCC2)N2CCOCC2)cc1`, the activation is reported as inactive: -0.46%. `CCOCN(C(=O)Cn1c(C(C)O)nc2ccccc21)c1c(C)cccc1CC` (stereo not given) was tested, and the activation was inactive: 4.41%. `CC(O)c1nc2ccccc2n1CC(=O)N1CCN(c2ccccc2)CC1` (stereo not given) was tested, and the activation was inactive: 0.21%. With `CN1CCN(CCN2CCn3c2nc2ccccc23)CC1` the activation was inactive: -1.19%. In the case of `COc1ccccc1OP(=O)(Nc1ccc(C)cn1)Oc1ccccc1OC`, the activation is reported as inactive: 1%. `CN1CC[C@]2(CCN3CCc4c(oc5ccccc45)[C@@H]3C2)N(C)C1=O` was tested, and the activation was inactive: 9.48%. `Cc1nc2cc(F)ccc2n1C1CCN(Cc2nnnn2CCc2ccccc2)CC1` was tested, and the activation was inactive: -1.15%. In the case of `CCC(C)(C)n1nnnc1CN1CCC(n2c(C)nc3cc(C(F)(F)F)ccc32)CC1`, the activation is reported as inactive: 4.05%. `O=C1Cn2c(nc3ccccc32)N1c1cccc(C(F)(F)F)c1` was tested, and the activation was inactive: 3.77%. With `COc1ccc(C(=O)CSc2nc3ccccc3n2CC(=O)NC(C)(C)C)cc1` the activation was inactive: -2.83%. For `CCOc1cc(N2CCOCC2)c(OCC)cc1NC(=O)Cn1cnc2c(=O)n(C)c(=O)n(C)c21`, the activation was inactive: -2.42%. `COc1ccc(CNC(=O)CCCCCNC(=O)N2CCn3c2nc2ccccc23)cc1` was tested, and the activation was inactive: -0.53%. `CCCCOC(=O)Cn1c(=N)n(CCN2CCOCC2)c2ccccc21` was tested, and the activation was inactive: -1.14%. With `CN1CCCC(OC(=O)C(c2ccccc2)c2ccccc2)C1` (stereo not given) the activation was inactive: -1.71%. For `Cc1ccc(/C=N/NC(=O)Cn2cnc3ccccc32)cc1`, the activation was inactive: -0.56%. In the case of `O=C(Cn1c(NCCO)nc2ccccc21)NCCc1ccccc1`, the activation is reported as inactive: -2.5%. In the case of `Clc1ccc(Cl)c(NC2=NCC(CBr)S2)c1` (stereo not given), the activation is reported as inactive: 3.32%. In the case of `FC(F)(F)c1ccc2c(c1)nnn2C1CCN(Cc2nnnn2Cc2ccccc2)CC1`, the activation is reported as inactive: 0.81%. For `CCC(=O)Nc1ccc(NC(=S)NC(=O)/C=C/c2ccccc2)cc1`, the activation was inactive: -6%. For `COc1ccc2nc(NC(=O)Cn3cnc4c(=O)n(C)c(=O)n(C)c43)sc2c1`, the activation was inactive: 2.86%. For `COCC(=O)N(C)[C@H]1C[C@H]2c3cc(N4CCN(C)CC4)ccc3CCN2C(=O)[C@H]1[C@H](C)O`, the activation was inactive: 0.02%. For `Nc1ccc([As](=O)(O)c2ccc(N)cc2)cc1`, the activation was inactive: 3.46%. In the case of `c1ccc(CCn2nnnc2CN2CCC(n3nnc4ccccc43)CC2)cc1`, the activation is reported as inactive: -1.65%. With `CCC(CC)NC(=O)Cn1c(C(C)NC(C)=O)nc2ccccc21` (stereo not given) the activation was inactive: 3.44%. `C[C@H](NC(=O)N1CCn2c1nc1ccccc12)C(=O)NC1CCCCC1` was tested, and the activation was inactive: -3.3%. `CCc1ccc(C(C)NC(=O)Cn2cnc3c(=O)n(C)c(=O)n(C)c32)cc1` (stereo not given) was tested, and the activation was inactive: 3.11%. For `Cc1nc2ccccc2n1CC(=O)NC(C)C1CC2CCC1C2` (stereo not given), the activation was inactive: 0.72%. With `COc1ccc(-c2ccc3c(c2)[C@@H]2C[C@H](N(C)C(=O)Nc4ccccc4)[C@H]([C@H](C)O)C(=O)N2CC3)cc1` the activation was inactive: 0.07%. With `C[N+]1=C2C=CC=CC=C2SC12C([N+](=O)[O-])=CC([N+](=O)[O-])=C[C-]2[N+](=O)[O-]` (stereo not given) the activation was inactive: -5.05%.
